Literature values, collected in PMC8200006.

Target: Amyloid beta (Homo sapiens) (UniProt P05067)
Experiment: fluorescence

Kd: 1 nM
Substance: Calmodulin (from UniProt P0DP23)
